Measured values from patent publication US12178805B2, “Inhibitors of PDE6Delta for use in the prevention and/or treatment of epilepsy and/or neurodegenerative disorders” (ReMYND N.V., priority 2017, dated 2024).

Target: recombinant PDE6δ (Homo sapiens, UniProt O43924)
Conditions: 20 μM compound

Structure (SMILES)	competition of the MFC-42826-PDE6δ interaction (response units)
CC(C)c1c(C(=O)Nc2ccccc2)c(-c2ccccc2)c(-c2ccc(F)cc2)n1CC[C@@H](O)C[C@@H](O)CC(=O)O [Atorvastatin, reference compound]	competed for the MFC-42826 interaction with PDE6δ
O=C(NCCc1c[nH]c2ccc(F)cc12)c1cc(Cc2cc(F)ccc2F)on1 [Compound 6]	response units were decreased
O=C(NCCc1c[nH]c2ccc(Cl)cc12)c1cc(Cc2cc(F)ccc2F)on1 [Compound A]	response units were decreased
